Experimental data reported in PubChem BioAssay (Tox21).
“And” between values parts separate entries of the source, which are not always exact repeats. Identical values can stand only once. This is a selection; strong and weak results do not stand in their true shares. Inconclusive results are not listed. The source made the active and inactive calls. Calls follow the shape of the full dose curve.

Test: p53 small molecule agonists, cell-based qHTS assay with rat liver microsomes (AID 1963578)
Details: HCT-116 p53RE-bla, beta-lactamase ratio, 16 h, at 30.3 µM (top of the series)
Description: U.S. Tox21 Program National Center for Advancing Translational Sciences [NCATS] Division of Preclinical Innovation [DPI] U.S. Environmental Protection Agency [EPA] National Institutes of Environmental Health Sciences [NIEHS] National Toxicology Program [NTP] U.S. Food and Drug Administration [FDA] Tox21 Assay Overview: p53, a tumor suppressor protein, is activated following cellular insult, including DNA damage and other cellular stresses. The activation of p53 regulates cell fate by inducing DNA repair, cell cycle arrest, apoptosis, or cellular senescence. The activation of p53, therefore, is a good indicator of DNA damage and other cellular stresses. […] The activation of the reporter gene under culture conditions can be detected by fluorescence intensity. This cell line was used to screen the Tox21 10K compound library in the condition of presence of rat liver microsomes and to identify agonists that activate the p53 signaling pathway after in vitro metabolic activation (Ooka et al., Archive of Toxicology 96:1975-1987, 2022).
Tox21 Assay Protocol Summary: The p53RE-bla cells were dispensed at 4,000cells/3ul/well in 1536-well black-clear bottom plates. After the assay plates were incubated at 37 C, 5% CO2 incubator for 5 hours, 23 nL of compounds dissolved in DMSO, positive controls or DMSO only was transferred to the assay plate. Following compound addition, 3 uL of rat liver microsomes (Molecular Toxicology, Boone, NC) at final concentration of 0.5 mg/mL and 1uL of Beta-Nicotinamide adenine dinucleotide 2-phosphate (NADPH) at final concentration of 0.5 mg/mL were transferred to the assay plate. The plates were incubated at 37 C for 16 hours. 1 uL of LiveBLAzer detection mixture was added to each well and the plates were incubated at room temperature in the dark for 2 h.
% is scaled to controls: 0 for no effect and ±100 for the full control effect.

| SMILES | activation |
| --- | --- |
| NC(=O)Nc1ccc([As](=O)(O)O)cc1 | inactive: 3.09% |

Same assay, conditions: HCT-116 p53RE-bla, beta-lactamase ratio, 16 h, at 66 µM (top of the series)

| SMILES | activation |
| --- | --- |
| NC(=O)Nc1ccc([As](=O)(O)O)cc1 | inactive: 4.36% |

Same assay, conditions: HCT-116 p53RE-bla, beta-lactamase ratio, 16 h; at 66 µM (top of the series) unless noted

| SMILES | activation |
| --- | --- |
| Cc1cc([N+](=O)[O-])c(O)c([N+](=O)[O-])c1 | inactive: 0.223% |
| O=P(Cl)(Cl)c1ccccc1 | inactive: 0.322% |
| O=C(Cl)Oc1ccccc1 | inactive: -2.18% |
| CCCCCCCCCCCCCC[P+](CCCCCC)(CCCCCC)CCCCCC | inactive: 1.2% |
| CN(C(=O)Cc1ccc(Cl)c(Cl)c1)[C@H]1CC[C@@]2(CCCO2)C[C@@H]1N1CCCC1 | inactive: -1.59% [at 30.3 µM] |
| O=C(Cl)OCCOC(=O)Cl | inactive: 1.03% |
| ClP(Cl)c1ccccc1 | inactive: 0.574% |
| CCCCOP(OCCCC)OCCCC | inactive: 2.2% |
| O=[N+]([O-])c1ccc([N+](=O)[O-])cc1 | inactive: -1.25% |
| O=[P+](Oc1ccccc1)Oc1ccccc1 | inactive: -1.98% |
| CN(C(=O)Cc1cccc2occc12)[C@H]1CC[C@@]2(CCCO2)C[C@@H]1N1CCCC1 | inactive: -2.17% |
| CCNC(C)Cc1ccc2c(c1)OCO2 (centres undefined) | inactive: 4.66% |
| CN(C(=O)Cc1ccccc1)[C@H]1CC[C@@]2(CCCO2)C[C@@H]1N1CCCC1 | inactive: -0.126% [at 30.3 µM] |
| COC(=O)Cl | inactive: 1.03% |
| Cc1cc([N+](=O)[O-])cc([N+](=O)[O-])c1O | inactive: -1.73% |
| O=P(Cl)(Oc1ccccc1)Oc1ccccc1 | inactive: 3.18% |
| O=C1C2CC=CCC2C(=O)N1SC(Cl)(Cl)C(Cl)Cl (centres undefined) | inactive: 6.65% and inactive: -4.39% |
| CCCCC(CC)CO[P+](=O)OCC(CC)CCCC (centres undefined) | inactive: 0.42% |
| CCCCO[P+](=O)OCCCC | inactive: -1.45% and inactive: -0.939% |
| CCC(C)(OOC(C)(C)C)OOC(C)(C)C | inactive: 0.519% [at 13.6 µM] |
| COP(=S)(Cl)OC | inactive: -1.03% |
| CN(N=O)C(=N)N[N+](=O)[O-] | inactive: 24.2% |
